Columns and labels:
[1] = biological target: T1, lecithin retinol acyl transferase (LRAT) (Bos taurus, UniProt Q9BGL2); experiment: In vitro Microsomal Assay, LRAT catalyzed retinol esterification (retinyl laurate formation); format: biochemical, bovine; conditions: Table 3; 100 micromolar
T1 construct: a microsomal fraction isolated from bovine retinal pigment epithelial cells; from tissue; host or cells: bovine retinal pigment epithelium, microsomal fraction
T1 sequence (Q9BGL2 1-230): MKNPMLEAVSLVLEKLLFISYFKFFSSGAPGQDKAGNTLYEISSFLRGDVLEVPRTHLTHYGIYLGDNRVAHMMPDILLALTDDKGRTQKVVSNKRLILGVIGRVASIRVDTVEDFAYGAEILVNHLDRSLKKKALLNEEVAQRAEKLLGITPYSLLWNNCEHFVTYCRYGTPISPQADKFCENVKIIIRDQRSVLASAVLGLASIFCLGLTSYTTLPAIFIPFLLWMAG

[2] = system: acyl CoA retinol transferase (ARAT); experiment: In vitro Microsomal Assay, ARAT catalyzed retinol esterification (retinyl palmitate formation); format: biochemical, bovine; conditions: Table 3; 100 micromolar

cocoylhydroxyethyl imidazoline
% INHIB. LRAT [1]: 65% | % INHIB. ARAT [2]: 68%

From patent EP0932387B1, “SKIN CARE COMPOSITIONS CONTAINING COMBINATIONS OF COMPOUNDS FOR MIMICKING THE EFFECT ON SKIN OF RETINOIC ACID” (UNILEVER PLC, priority 1996, dated 1998)
